This note sets out measurements from PubChem BioAssay AID594 (National Center for Advancing Translational Sciences (NCATS), 2007).

Only a part is listed here, and it is no random draw. Activity calls are given as the source filed them. Rule as the data show it: active = max dye-equivalent concentration above about 11 nM; inconclusive = between about 1.1 nM and that limit; inactive = weaker than that.

This test is described as follows: qHTS Assay for Spectroscopic Profiling in Rhodamine Spectral Region. Particulars: Rhodamine-region fluorescence, 547/598 nm, Tris buffer. The source says: NIH Molecular Libraries Screening Centers Network [MLSCN] NIH Chemical Genomics Center [NCGC] […] Occasionally, the artifactual effect may originate from the compound#s own spectral or other biophysical properties which generally tend to track its assay concentration. Pre-screening/profiling the library with respect to the compounds# spectral properties should help one exclude false positives early on. While the most informative fluorescent profiling data set is obtained by performing a full excitation and emission scan of each well by using a monochromator-based plate reader, such an approach is practical only on a very limited scale as scanning each well requires long time. An alternative approach, applied here, is to perform plate reader scans using selected excitation and emission wavelength pairs to generate a multidimensional relational database that correlates compound concentration and the respective relative fluorescence intensity at a given wavelength set. A standard curve of rhodamine present on each plate as six-point concentration series, was used to compute a normalized fluorescence response, termed dye-equivalent concentration, for each compound at each concentration.
NCGC Assay Protocol Summary: Buffer: 100 mM Tris buffer, pH 8.0 Dye standard plate: The wells in columns 1 through 4 of a Kalypsys polypropylene 1536-well compound plate were filled with standard solutions of fluorophore corresponding to the spectral region of interest. Solutions of rhodamine were placed in the following wells: E1, F1: 3 mM, E2, F2: 300 uM, E3, F3: 30 uM, E4, F4: zero (DMSO), G1, H1: 3 uM, G2, H2: […], G3, H3: 300 nM, G4, H4: zero (DMSO). Assay Steps: Six uL of buffer were dispensed to 1536-well Greiner black plates. Compounds and dye standards (23 nL) were transferred via Kalypsys PinTool. The plates were incubated for 15 min at room temperature, and then read on ViewLux (Perkin-Elmer) High-throughput CCD imager using 547 nm and 598 nm excitation and emission filter set. Keywords: NIH Roadmap, MLSCN, MLI, MLSMR, qHTS, NCGC, Rhodamine , Fluorescent Profiling.
For the compound `N#CC1(Nc2ccccc2)CCN(CCc2ccccc2)CC1`, the compound was called inactive.
For the compound `NC1CCCCC1.NP(=O)(O)N(CCCl)CCCl`, the call was inactive.
Take `O=C(OC1CN2CCC1CC2)C1c2ccccc2Oc2ccccc21` (configuration not stated): the result was inactive.
The value for `CCOc1ncccc1C(=O)NCC1(N2CCOCC2)CCCCC1` was “inactive”; that for `O=C(O)C1(Nc2ccccc2)CCN(Cc2ccccc2)CC1` was “inactive”; that for `CCC(CO)(C(=O)OC1CN2CCC1CC2)c1ccccc1` (configuration not stated) was “inactive”.
As for `N/C(=N\O)c1c(N)no[n+]1[O-]`, the compound was classed as inactive.
